Source: ChEMBL document CHEMBL1129970, “Biologically active conformer of the effector region of human C5a and modulatory effects of N-terminal receptor binding determinants on activity” (J Med Chem, 1997)

Experiments:
Homo sapiens [1] = species on record: Homo sapiens; test: Log potency ratio [log IC50(C5a)-log IC50(peptide)] was determined in human polymorphonuclear cells (PMN) (n=10); format: functional
Homo sapiens [2] = species on record: Homo sapiens; test: Maximum efficacy relative to C5a (100%) for human polymorphonuclear cells (PMN) was determined (n=8); format: functional
Homo sapiens [3] = species on record: Homo sapiens; test: Relative affinity for PMN receptor (n=10); format: functional
Homo sapiens [4] = species on record: Homo sapiens; test: Log potency ratio [pD2(C5a)-pD2(peptide)] was determined in human fetal artery; format: functional
Method in brief: (§1)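 Human fetal artery smooth muscle contraction; full dose–response curves for recombinant human C5a or each peptide in the same tissue preparation. EC50 is the concentration giving 50% of the maximal response, read relative to the C5a maximum. pD2 = −log EC50 (M), averaged per peptide ± SE. Log potency ratio pD2(C5a) − pD2(peptide) is computed within each experiment. Relative potency = antilog(−Δ) × 100.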

Homo sapiens [5] = species on record: Homo sapiens; test: Relative potency of peptide for human fetal artery was determined; format: functional; method in brief: as §1
Homo sapiens [6] = species on record: Homo sapiens; test: Ratio of concentration agonist potency (EC50) to concentration inhibiting [125I]-C5a binding (n=10); format: functional
Homo sapiens [7] = species on record: Homo sapiens; test: Selectivity of peptide was determined from antilog[pD2(fetal artery)-pD2 (PMN enzyme release)] (n=34); format: functional
Homo sapiens [8] = species on record: Homo sapiens; test: Tested for the ability to stimulate beta-glucuronidase release from human polymorphonuclear cells (PMN) (n=8); format: functional
Homo sapiens [9] = species on record: Homo sapiens; test: Relative potency of peptide to stimulate beta-glucuronidase release from human polymorphonuclear cells (PMN) (n=8); format: functional
Homo sapiens [10] = species on record: Homo sapiens; test: Spasmogenic activity was measured by the ability to induce smooth muscle contraction in human fetal artery; format: functional, Muscle tissue; method in brief: as §1
Homo sapiens [11] = species on record: Homo sapiens; test: Log potency ratio [pD2(C5a)-pD2(peptide)] was determined in human polymorphonuclear cells (PMN) (n=8); format: functional
Homo sapiens [12] = species on record: Homo sapiens; test: Effective concentration to stimulate beta-glucuronidase release from human polymorphonuclear cells (PMN) (n=8); format: functional, organism-based
Homo sapiens [13] = species on record: Homo sapiens; test: Effective concentration to induce smooth muscle contraction in human fetal artery; format: functional; conditions: Muscle tissue; method in brief: as §1
Homo sapiens [14] = species on record: Homo sapiens; test: Tested for inhibition of binding of [125I]C5a to intact human polymorphonuclear cells (PMN) (n=10); format: functional, organism-based

CSCC[C@H](NC(=O)[C@@H]1CCCN1C(=O)[C@H](CCCCN)NC(=O)[C@H](Cc1ccccc1)NC(=O)[C@H](CO)NC(=O)[C@@H](N)Cc1ccc(O)cc1)C(=O)N1CCC[C@H]1C(=O)N[C@@H](CC(C)C)C(=O)N[C@H](C)C(=O)N[C@@H](CCCN=C(N)N)C(=O)O [listing 1 of 2 here]
Mean log concentration ratio (Homo sapiens [1]): 3.84 | C5a max (Homo sapiens [2]): 216% | C5a affinity (Homo sapiens [3]): 0.014% | Mean log concentration ratio (Homo sapiens [4]): 1.11 | Potency (Homo sapiens [5]): 7.8% | Ratio (Homo sapiens [6]): 0.7 | Selectivity (Homo sapiens [7]): 24 | pD2 (Homo sapiens [8]): 5.37 | Potency (Homo sapiens [9]): 0.9% | pD2 (Homo sapiens [10]): 6.75 | Mean log concentration ratio (Homo sapiens [11]): 2.06

CSCC[C@H](NC(=O)[C@@H]1CCCN1C(=O)[C@H](CCCCN)NC(=O)[C@H](Cc1ccccc1)NC(=O)[C@H](CO)NC(=O)[C@@H](N)Cc1ccc(O)cc1)C(=O)N1CCC[C@H]1C(=O)N[C@@H](CC(C)C)C(=O)N[C@H](C)C(=O)N[C@@H](CCCN=C(N)N)C(=O)O [listing 2 of 2 here]
EC50 (Homo sapiens [12]): 4.1 µM | EC50 (Homo sapiens [13]): 0.2 µM | IC50 (Homo sapiens [14]): 6 µM
